Literature values in US9511027B1, “Calcium supplement having enhanced absorption” (Delavau L.L.C., priority 2006, dated 2016).

Conditions: adult men and postmenopausal women; Heaney et al. 1999

For calcium carbonate [reference compound], the absorption efficiency is given as “about 34.2%±10.1”.
